Here are results for one compound from ChEMBL document CHEMBL1833814, “Discovery of BI 99179, a potent and selective inhibitor of type I fatty acid synthase with central exposure” (Bioorg Med Chem Lett, 2011).

The data set has as its system Rattus norvegicus. Briefly: Ratio of drug level in CSF to brain of Han/Wistar rat at 4 mg/kg, po measured at 2 hrs. The settings on record: in vivo.

The structures appear in SMILES notation.

As for `CCC(=O)N[C@H]1CC[C@@H](C(=O)N(C)c2ccc(-c3nc4ccccc4o3)cc2)C1` [BI 99179], the Ratio was 4%.
